Data from PMC7611940, “A Conformation Selective Mode of Inhibiting SRC Improves Drug Efficacy and Tolerability” (Cancer Research, 2021).

Chains of the proteins cited; added tags and fusions are not shown. Lines headed by an entry give the natural chain unless they say otherwise; changes in a name come on top.
UniProt Q13177, whole entry: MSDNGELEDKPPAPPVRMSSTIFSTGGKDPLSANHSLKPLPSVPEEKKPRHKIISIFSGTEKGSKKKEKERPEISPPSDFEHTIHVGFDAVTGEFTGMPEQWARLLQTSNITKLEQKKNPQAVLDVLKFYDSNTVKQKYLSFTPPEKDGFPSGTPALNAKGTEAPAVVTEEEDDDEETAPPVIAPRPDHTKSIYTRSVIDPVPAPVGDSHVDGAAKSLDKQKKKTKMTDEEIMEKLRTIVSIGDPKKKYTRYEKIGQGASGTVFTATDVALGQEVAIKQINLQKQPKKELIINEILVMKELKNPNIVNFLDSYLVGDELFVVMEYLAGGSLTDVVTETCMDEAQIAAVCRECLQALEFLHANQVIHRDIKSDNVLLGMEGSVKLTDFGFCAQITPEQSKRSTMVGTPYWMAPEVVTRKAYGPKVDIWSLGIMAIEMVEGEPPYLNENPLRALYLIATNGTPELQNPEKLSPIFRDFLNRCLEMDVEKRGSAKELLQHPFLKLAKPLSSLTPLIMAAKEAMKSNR
UniProt Q6DT37: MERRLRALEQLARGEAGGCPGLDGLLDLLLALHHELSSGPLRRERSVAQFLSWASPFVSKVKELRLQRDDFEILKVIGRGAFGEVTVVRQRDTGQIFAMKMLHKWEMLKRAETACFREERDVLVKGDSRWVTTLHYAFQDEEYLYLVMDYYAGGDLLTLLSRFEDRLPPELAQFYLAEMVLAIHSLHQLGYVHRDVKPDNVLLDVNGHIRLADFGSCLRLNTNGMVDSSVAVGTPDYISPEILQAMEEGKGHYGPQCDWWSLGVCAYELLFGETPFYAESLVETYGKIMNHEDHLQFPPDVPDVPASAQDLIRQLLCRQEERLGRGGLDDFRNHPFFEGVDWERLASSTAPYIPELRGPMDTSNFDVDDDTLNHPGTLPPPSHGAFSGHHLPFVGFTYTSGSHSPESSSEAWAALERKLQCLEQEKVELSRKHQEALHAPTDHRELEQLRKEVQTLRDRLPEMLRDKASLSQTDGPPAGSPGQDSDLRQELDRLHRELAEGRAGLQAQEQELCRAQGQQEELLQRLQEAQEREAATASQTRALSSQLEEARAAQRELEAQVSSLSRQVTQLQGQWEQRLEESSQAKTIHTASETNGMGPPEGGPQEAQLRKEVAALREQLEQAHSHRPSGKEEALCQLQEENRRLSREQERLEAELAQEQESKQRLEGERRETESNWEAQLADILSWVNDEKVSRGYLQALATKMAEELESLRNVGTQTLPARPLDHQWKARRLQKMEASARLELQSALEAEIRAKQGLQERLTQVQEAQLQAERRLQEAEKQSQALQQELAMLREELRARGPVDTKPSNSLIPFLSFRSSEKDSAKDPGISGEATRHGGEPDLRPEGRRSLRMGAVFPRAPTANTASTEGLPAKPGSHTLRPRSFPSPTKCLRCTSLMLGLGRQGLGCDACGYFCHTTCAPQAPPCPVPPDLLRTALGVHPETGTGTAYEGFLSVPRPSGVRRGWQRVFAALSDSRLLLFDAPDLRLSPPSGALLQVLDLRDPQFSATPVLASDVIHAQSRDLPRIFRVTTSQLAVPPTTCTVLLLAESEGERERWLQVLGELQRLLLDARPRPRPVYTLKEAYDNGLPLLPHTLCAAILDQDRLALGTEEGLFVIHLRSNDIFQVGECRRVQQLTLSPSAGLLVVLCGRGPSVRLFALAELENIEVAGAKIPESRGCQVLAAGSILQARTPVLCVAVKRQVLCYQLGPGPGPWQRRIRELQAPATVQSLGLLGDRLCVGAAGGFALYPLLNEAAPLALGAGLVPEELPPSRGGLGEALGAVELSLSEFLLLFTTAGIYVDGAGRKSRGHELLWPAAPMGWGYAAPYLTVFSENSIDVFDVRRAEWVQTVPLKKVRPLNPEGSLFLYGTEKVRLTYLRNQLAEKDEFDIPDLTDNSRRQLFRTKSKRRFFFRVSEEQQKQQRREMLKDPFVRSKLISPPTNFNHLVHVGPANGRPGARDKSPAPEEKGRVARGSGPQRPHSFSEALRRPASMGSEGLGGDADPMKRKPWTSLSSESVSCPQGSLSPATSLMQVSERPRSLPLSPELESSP
UniProt P32298, whole entry: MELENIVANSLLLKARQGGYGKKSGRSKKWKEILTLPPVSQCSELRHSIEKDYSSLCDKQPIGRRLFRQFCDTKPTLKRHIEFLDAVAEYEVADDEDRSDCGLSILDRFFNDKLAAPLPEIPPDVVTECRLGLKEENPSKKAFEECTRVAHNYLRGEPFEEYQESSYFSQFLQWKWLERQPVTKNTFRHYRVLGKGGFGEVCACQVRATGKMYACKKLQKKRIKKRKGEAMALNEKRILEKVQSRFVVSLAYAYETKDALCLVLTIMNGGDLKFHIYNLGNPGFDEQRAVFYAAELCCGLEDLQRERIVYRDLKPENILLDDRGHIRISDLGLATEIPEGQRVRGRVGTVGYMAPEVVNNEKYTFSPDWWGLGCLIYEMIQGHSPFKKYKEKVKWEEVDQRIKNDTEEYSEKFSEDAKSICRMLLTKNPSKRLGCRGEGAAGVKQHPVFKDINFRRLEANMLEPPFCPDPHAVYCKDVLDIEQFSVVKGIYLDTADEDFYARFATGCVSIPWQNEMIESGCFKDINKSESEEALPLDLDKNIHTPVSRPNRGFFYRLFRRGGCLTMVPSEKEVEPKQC
UniProt Q99759: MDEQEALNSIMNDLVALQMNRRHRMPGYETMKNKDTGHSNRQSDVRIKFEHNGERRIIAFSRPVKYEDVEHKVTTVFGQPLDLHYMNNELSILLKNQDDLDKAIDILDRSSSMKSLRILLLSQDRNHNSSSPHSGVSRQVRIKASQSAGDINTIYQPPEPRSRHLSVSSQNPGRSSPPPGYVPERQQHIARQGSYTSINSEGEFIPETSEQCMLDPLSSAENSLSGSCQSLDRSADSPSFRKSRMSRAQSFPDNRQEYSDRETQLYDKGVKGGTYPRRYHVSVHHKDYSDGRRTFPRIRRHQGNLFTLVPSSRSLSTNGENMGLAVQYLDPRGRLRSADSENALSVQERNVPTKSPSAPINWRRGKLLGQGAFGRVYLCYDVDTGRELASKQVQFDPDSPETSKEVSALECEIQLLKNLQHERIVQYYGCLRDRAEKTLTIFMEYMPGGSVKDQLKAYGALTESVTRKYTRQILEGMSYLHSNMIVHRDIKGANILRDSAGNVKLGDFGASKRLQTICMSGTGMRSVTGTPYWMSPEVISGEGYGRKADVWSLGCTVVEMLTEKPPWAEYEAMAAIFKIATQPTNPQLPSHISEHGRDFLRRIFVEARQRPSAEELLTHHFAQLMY
UniProt P51955: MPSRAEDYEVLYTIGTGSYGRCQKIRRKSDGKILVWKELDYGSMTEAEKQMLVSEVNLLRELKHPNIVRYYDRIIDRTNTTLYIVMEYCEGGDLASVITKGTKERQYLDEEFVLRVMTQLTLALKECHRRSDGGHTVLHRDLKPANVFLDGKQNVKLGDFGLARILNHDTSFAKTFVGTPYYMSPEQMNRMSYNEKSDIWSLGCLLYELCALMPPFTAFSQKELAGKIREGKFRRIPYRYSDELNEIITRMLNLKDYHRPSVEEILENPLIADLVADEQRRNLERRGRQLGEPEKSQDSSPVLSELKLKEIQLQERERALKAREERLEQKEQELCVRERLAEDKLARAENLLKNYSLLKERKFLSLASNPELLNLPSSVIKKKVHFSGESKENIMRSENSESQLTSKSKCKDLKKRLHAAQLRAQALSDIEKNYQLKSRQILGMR
UniProt Q14164: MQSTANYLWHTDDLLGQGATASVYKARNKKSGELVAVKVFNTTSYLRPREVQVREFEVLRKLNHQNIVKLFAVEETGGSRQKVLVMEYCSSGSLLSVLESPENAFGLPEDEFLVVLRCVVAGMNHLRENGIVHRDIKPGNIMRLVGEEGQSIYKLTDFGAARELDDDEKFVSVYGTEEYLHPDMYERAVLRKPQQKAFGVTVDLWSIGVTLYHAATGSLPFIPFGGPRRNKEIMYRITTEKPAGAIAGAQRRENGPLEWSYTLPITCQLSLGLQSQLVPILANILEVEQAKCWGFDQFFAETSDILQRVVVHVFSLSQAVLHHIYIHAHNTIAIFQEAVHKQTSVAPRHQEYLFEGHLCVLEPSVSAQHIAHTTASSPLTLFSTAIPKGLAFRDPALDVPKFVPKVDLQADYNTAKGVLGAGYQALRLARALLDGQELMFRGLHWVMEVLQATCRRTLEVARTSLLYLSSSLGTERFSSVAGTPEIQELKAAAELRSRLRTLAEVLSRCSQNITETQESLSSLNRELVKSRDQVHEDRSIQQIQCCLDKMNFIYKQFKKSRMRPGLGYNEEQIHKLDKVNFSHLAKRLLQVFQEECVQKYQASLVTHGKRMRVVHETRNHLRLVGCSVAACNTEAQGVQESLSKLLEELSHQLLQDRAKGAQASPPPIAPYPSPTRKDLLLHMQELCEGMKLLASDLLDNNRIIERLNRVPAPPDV
UniProt Q00534, whole entry: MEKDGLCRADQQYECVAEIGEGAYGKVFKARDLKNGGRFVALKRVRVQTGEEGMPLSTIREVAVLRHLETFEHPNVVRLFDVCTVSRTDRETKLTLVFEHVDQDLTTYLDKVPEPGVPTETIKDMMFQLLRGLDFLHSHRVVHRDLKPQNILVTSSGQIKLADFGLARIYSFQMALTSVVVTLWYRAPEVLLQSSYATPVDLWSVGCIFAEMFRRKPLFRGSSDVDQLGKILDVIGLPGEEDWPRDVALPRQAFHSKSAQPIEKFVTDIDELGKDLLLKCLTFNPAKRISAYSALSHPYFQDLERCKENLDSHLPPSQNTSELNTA
UniProt P08631: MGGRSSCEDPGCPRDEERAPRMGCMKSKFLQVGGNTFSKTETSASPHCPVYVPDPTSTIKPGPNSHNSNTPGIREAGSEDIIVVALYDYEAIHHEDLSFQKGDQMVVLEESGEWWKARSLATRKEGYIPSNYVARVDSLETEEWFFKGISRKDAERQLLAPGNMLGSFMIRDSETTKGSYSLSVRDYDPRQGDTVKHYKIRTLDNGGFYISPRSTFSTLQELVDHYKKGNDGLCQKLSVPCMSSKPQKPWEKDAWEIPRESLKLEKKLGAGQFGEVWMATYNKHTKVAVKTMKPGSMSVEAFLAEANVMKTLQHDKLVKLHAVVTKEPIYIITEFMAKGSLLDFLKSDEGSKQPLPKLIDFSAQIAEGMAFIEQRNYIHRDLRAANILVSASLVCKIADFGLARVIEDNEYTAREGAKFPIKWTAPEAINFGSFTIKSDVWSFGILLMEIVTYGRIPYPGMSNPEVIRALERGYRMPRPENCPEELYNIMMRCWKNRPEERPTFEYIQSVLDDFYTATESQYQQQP
UniProt Q8IYT8: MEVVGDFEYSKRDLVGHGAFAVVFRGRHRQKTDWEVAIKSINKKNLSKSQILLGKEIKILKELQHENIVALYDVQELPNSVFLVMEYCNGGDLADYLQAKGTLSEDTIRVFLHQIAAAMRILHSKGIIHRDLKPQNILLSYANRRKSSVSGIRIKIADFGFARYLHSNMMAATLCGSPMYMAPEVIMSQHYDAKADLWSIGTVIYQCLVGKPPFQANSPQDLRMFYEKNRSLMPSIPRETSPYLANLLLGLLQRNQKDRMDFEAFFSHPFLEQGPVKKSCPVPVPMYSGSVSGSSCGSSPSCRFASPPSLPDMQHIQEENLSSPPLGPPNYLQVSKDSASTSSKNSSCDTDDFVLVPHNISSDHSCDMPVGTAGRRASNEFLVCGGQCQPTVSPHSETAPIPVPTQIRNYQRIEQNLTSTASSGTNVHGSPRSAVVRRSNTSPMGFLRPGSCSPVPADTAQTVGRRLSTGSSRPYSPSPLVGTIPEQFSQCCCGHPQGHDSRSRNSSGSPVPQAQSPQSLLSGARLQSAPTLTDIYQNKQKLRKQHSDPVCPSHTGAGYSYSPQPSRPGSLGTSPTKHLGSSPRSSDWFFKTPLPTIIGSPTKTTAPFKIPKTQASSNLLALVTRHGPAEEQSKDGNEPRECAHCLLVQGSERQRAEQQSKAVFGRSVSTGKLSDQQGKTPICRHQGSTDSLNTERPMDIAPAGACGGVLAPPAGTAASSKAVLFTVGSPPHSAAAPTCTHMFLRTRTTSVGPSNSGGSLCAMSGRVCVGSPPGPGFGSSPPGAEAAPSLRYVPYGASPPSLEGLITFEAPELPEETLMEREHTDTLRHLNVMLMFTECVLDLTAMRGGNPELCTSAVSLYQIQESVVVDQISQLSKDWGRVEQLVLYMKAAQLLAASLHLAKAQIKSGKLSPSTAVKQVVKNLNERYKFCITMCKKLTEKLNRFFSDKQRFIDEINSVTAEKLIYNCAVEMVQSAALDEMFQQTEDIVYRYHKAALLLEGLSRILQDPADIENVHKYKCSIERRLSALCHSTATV

Legend:
Test in all cases: biochemical
Conditions in all cases: read-out: % remaining activity
SRMS = SRMS (Homo sapiens, UniProt Q9H3Y6)
PAK2 = PAK2 (Homo sapiens, UniProt Q13177)
PKCtheta = target: T1, PKCtheta (Homo sapiens, UniProt Q04759)
T1 construct: gene PRKCQ

MUSK = MUSK (Homo sapiens, UniProt O15146)
DMPK2 = target: T2, DMPK2 (Homo sapiens, UniProt Q6DT37)
T2 construct: gene CDC42BPG

PRKG2 = PRKG2 (Homo sapiens, UniProt Q13237)
CK1g2 = target: T3, CK1g2 (Homo sapiens, UniProt P78368)
T3 construct: gene CSNK1G2

TBK1 = TBK1 (Homo sapiens, UniProt Q9UHD2)
CAMK1b = target: T4, CAMK1b (Homo sapiens, UniProt Q6P2M8)
T4 construct: gene PNCK

FES = FES (Homo sapiens, UniProt P07332)
CDK4/cyclin D1 = CDK4/cyclin D1 (Homo sapiens, UniProt P11802)
CDK2/cyclin E = CDK2/cyclin E (Homo sapiens, UniProt P24941)
PDPK1 = PDPK1 (Homo sapiens, UniProt O15530)
MARK3 = MARK3 (Homo sapiens, UniProt P27448)
GRK7 = GRK7 (Homo sapiens, UniProt Q8WTQ7)
PRKD2 = PRKD2 (Homo sapiens, UniProt Q9BZL6)
GRK4 = GRK4 (Homo sapiens, UniProt P32298)
MEKK3 = target: T5, MEKK3 (Homo sapiens, UniProt Q99759)
T5 construct: gene MAP3K3

NEK2 = NEK2 (Homo sapiens, UniProt P51955)
IKKe = target: T6, IKKe (Homo sapiens, UniProt Q14164)
T6 construct: gene IKBKE

EPHA8 = EPHA8 (Homo sapiens, UniProt P29322)
PKCa = target: T7, PKCa (Homo sapiens, UniProt P17252)
T7 construct: gene PRKCA

TAK1 = target: T8, TAK1 (Homo sapiens, UniProt O43318)
T8 construct: gene MAP3K7

CDK6/cyclin D3 = CDK6/cyclin D3 (Homo sapiens, UniProt Q00534)
ARAF = ARAF (Homo sapiens, UniProt P10398)
TNIK = TNIK (Homo sapiens, UniProt Q9UKE5)
CDK1/cyclin A = CDK1/cyclin A (Homo sapiens, UniProt P06493)
HCK = HCK (Homo sapiens, UniProt P08631)
NEK1 = NEK1 (Homo sapiens, UniProt Q96PY6)
ULK2 = ULK2 (Homo sapiens, UniProt Q8IYT8)
TIE2 = target: T9, TIE2 (Homo sapiens, UniProt Q02763)
T9 construct: gene TEK

LOK = target: T10, LOK (Homo sapiens, UniProt O94804)
T10 construct: gene STK10

DYRK4 = DYRK4 (Homo sapiens, UniProt Q9NR20)
NEK3 = NEK3 (Homo sapiens, UniProt P51956)
TNK1 = TNK1 (Homo sapiens, UniProt Q13470)
MST1 = target: T11, MST1 (Homo sapiens, UniProt Q13043)
T11 construct: gene STK4

remaining activity at 1 µM (SRMS): 46.2%
remaining activity at 1 µM (PAK2): 71.2%
remaining activity at 1 µM (PKCtheta): 92.1%
remaining activity at 1 µM (MUSK): 89%
remaining activity at 1 µM (DMPK2): 91.5%
remaining activity at 1 µM (PRKG2): 93.7%
remaining activity at 1 µM (CK1g2): 90.9%
remaining activity at 1 µM (TBK1): 99.1%
remaining activity at 1 µM (CAMK1b): 90.7%
remaining activity at 1 µM (FES): 109%
remaining activity at 1 µM (CDK4/cyclin D1): 104%
remaining activity at 1 µM (CDK2/cyclin E): 102%
remaining activity at 1 µM (PDPK1): 97.5%
remaining activity at 1 µM (MARK3): 101%
remaining activity at 1 µM (GRK7): 98.6%
remaining activity at 1 µM (PRKD2): 113%
remaining activity at 1 µM (GRK4): 99.5%
remaining activity at 1 µM (MEKK3): 80.2%
remaining activity at 1 µM (NEK2): 97.7%
remaining activity at 1 µM (IKKe): 93.8%
remaining activity at 1 µM (EPHA8): 95.6%
remaining activity at 1 µM (PKCa): 99.9%
remaining activity at 1 µM (TAK1): 102%
remaining activity at 1 µM (CDK6/cyclin D3): 92.6%
remaining activity at 1 µM (ARAF): 1.7%
remaining activity at 1 µM (TNIK): 98.1%
remaining activity at 1 µM (CDK1/cyclin A): 97.1%
remaining activity at 1 µM (HCK): 0.8%
remaining activity at 1 µM (NEK1): 106%
remaining activity at 1 µM (ULK2): 104%
remaining activity at 1 µM (TIE2): 104%
remaining activity at 1 µM (LOK): 104%
remaining activity at 1 µM (DYRK4): 101%
remaining activity at 1 µM (NEK3): 98%
remaining activity at 1 µM (TNK1): 103%
remaining activity at 1 µM (MST1): 105%
SMILES: COc1cc(-c2nn(CCN3CCC(N(C)C)CC3)c3ncnc(N)c23)ccc1NC(=O)OC(C)(C)C [eCF506]
